Experimental findings from ChEMBL document CHEMBL1150776, “Naturally occurring pentacyclic triterpenes as inhibitors of glycogen phosphorylase: synthesis, structure-activity relationships, and X-ray crystallographic studies” (J Med Chem, 2008) are described below.

The target of the assay is T1, Glycogen phosphorylase, muscle form (Oryctolagus cuniculus, UniProt P00489).
T1 sequence (P00489 whole entry): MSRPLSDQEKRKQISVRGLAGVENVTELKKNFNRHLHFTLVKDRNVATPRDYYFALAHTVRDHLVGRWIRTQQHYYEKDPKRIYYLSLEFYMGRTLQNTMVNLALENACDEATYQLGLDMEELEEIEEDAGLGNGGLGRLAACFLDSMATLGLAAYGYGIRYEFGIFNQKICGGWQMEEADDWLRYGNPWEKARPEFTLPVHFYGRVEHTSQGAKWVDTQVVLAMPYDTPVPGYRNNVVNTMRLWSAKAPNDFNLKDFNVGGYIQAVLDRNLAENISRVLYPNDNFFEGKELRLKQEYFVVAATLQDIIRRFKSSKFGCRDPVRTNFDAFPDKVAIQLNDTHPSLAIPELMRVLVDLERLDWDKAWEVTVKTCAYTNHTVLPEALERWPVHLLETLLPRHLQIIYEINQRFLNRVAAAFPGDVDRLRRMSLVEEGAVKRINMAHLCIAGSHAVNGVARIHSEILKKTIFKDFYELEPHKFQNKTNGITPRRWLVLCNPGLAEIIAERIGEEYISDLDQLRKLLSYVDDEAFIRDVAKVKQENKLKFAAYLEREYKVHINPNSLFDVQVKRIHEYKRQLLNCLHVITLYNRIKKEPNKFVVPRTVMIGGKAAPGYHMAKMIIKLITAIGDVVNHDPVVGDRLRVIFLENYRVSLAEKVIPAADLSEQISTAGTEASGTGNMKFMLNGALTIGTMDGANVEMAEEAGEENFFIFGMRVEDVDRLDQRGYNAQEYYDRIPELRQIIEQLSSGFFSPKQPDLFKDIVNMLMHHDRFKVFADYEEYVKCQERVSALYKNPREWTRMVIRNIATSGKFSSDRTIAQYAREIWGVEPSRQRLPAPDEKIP
Kind of assay: Inhibition of rabbit muscle glycogen phosphorylase A assessed as phosphate release from glucose-1-phosphate.

Broadly, the IC50 is the concentration that gives 50% inhibition. For `CC1(C)CC[C@]2(C(=O)O)CC[C@]3(C)C(=CC[C@@H]4[C@@]5(C)CC[C@@H](O)C(C)(C)[C@@H]5CC[C@]43C)[C@@H]2C1`, the IC50 turned out to be 21 µM.
